From patent publication US11414379B2, “SPAK kinase inhibitors as neuroprotective agents” (United States Government as represented by the Department …, priority 2018, dated 2022) come the findings set out here.

Data set [1] in a line: In vivo pharmacokinetics (data not shown).
Data set [2] has as its system KCCs sites-1/2 (KCC2 Thr906/1007 or KCC3 Thr991/1048) phosphorylation. The data set can be described thus: Phosphorylation immunoblot in HEK293 cells. It is filed as cell-based, human. The settings on record: only at this concentration. Here is the method: HEK293 (human embryonic kidney 293) cells were cultured on 10-cm-diameter dishes in DMEM supplemented with 10% (v/v) foetal bovine serum, 2 mM L-glutamine, 100 U/ml penicillin and 0.1 mg/ml streptomycin. HEK293 cells were transfected with a mixture of 20 μl of 1 mg/ml polyethylenimine (Polysciences) and 5-10 μg of plasmid DNA as described previously (Durocher et al., 2002). 36 hours post-transfection cells were stimulated with either control isotonic or hypotonic medium for a period of 30 minutes. […] Protein concentrations were determined using the Bradford method. […]
Protein samples (40 μg) were boiled in sample buffer for 5 min, resolved by 7.5% sodium dodecyl sulfate polyacrylamide-gel electrophoresis and electrotransferred onto a polyvinylidene difluoride membrane as previously described (Bhuiyan et al. (2017) Journal of cerebral bloodflow and metabolism: official journal of the International Society of Cerebral Blood Flow and Metabolism 37: 2780-2794; de Los Heros et al. (2014) The Biochemical journal 458: 559-573; Zhu et al. (2014) Molecular cancer 13: 31). […] After repeating the washing steps, signals were detected with enhanced chemiluminescence reagent. […] The densities of bands were measured with ImageJ. […]

With `CCN1/C(=C\C2=CC(=C/C=C/c3sc4ccccc4[n+]3CC)/CC(C)C2)Sc2ccccc21` (centres unmarked), the in vivo pharmacokinetics result in data set [1] was “unfavorable in vivo pharmacokinetics”. Moreover, the “concentration at which phosphorylation of KCCs site-1 was significantly inhibited” value in data set [2] worked out at 10 µM.
